PubChem BioAssay (NCI)
Some results for these compounds are left out of this collection, so the calls shown say nothing about other tests.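 Cells were grown in 96-well plates and exposed to each compound for 48 hours at five concentrations; endpoints were interpolated linearly between bracketing concentrations, or set to the highest concentration if not reached. The concentration for full growth arrest is given as TGI.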

What was measured:
Test in all cases: inhibition of tumour cell growth, NCI panel, 48 h
786-0 renal = tested on: 786-0 renal
A498 renal = tested on: A498 renal
A549 NSCLC = tested on: A549 NSCLC
ACHN renal = tested on: ACHN renal
BT-549 breast = tested on: BT-549 breast
CAKI-1 renal = tested on: CAKI-1 renal
CCRF-CEM leukemia = tested on: CCRF-CEM leukemia
COLO 205 colon = tested on: COLO 205 colon
DU-145 prostate = tested on: DU-145 prostate
EKVX NSCLC = tested on: EKVX NSCLC
HCT-116 colon = tested on: HCT-116 colon
HCT-15 colon = tested on: HCT-15 colon
HL-60(TB) leukemia = tested on: HL-60(TB) leukemia
HOP-62 NSCLC = tested on: HOP-62 NSCLC
HOP-92 NSCLC = tested on: HOP-92 NSCLC
HS 578T breast = tested on: HS 578T breast
HT29 colon = tested on: HT29 colon
IGROV1 ovarian = tested on: IGROV1 ovarian
K-562 leukemia = tested on: K-562 leukemia
KM12 colon = tested on: KM12 colon
LOX IMVI melanoma = tested on: LOX IMVI melanoma
M14 melanoma = tested on: M14 melanoma
MALME-3M melanoma = tested on: MALME-3M melanoma
MCF7 breast = tested on: MCF7 breast
MDA-MB-231 breast = tested on: MDA-MB-231 breast
MDA-MB-435 = tested on: MDA-MB-435
MDA-N = tested on: MDA-N
MOLT-4 leukemia = tested on: MOLT-4 leukemia
NCI-H226 lung = tested on: NCI-H226 lung
NCI-H23 lung = tested on: NCI-H23 lung
NCI-H460 lung = tested on: NCI-H460 lung
NCI-H522 lung = tested on: NCI-H522 lung
NCI/ADR-RES ovarian = tested on: NCI/ADR-RES ovarian
OVCAR-3 ovarian = tested on: OVCAR-3 ovarian
OVCAR-4 ovarian = tested on: OVCAR-4 ovarian
OVCAR-5 ovarian = tested on: OVCAR-5 ovarian
OVCAR-8 ovarian = tested on: OVCAR-8 ovarian
PC-3 prostate = tested on: PC-3 prostate
RPMI-8226 leukemia = tested on: RPMI-8226 leukemia
RXF 393 renal = tested on: RXF 393 renal
SF-268 CNS = tested on: SF-268 CNS
SF-295 CNS = tested on: SF-295 CNS
SF-539 CNS = tested on: SF-539 CNS
SK-MEL-2 melanoma = tested on: SK-MEL-2 melanoma
SK-MEL-28 melanoma = tested on: SK-MEL-28 melanoma
SK-MEL-5 melanoma = tested on: SK-MEL-5 melanoma
SK-OV-3 ovarian = tested on: SK-OV-3 ovarian
SN12C renal = tested on: SN12C renal
SNB-19 CNS = tested on: SNB-19 CNS
SNB-75 CNS = tested on: SNB-75 CNS
SR leukemia = tested on: SR leukemia
SW-620 colon = tested on: SW-620 colon
T-47D breast = tested on: T-47D breast
TK-10 renal = tested on: TK-10 renal
U251 CNS = tested on: U251 CNS
UACC-257 melanoma = tested on: UACC-257 melanoma
UACC-62 melanoma = tested on: UACC-62 melanoma
UO-31 renal = tested on: UO-31 renal

With `CCC1C(OC(=O)C(O)(c2ccccc2)c2ccccc2)C(C)(C)C1N1CCCCC1` (stereo not drawn) the TGI (786-0 renal) was > 100 µM, the TGI (A498 renal) was > 100 µM and the TGI (A549 NSCLC) was > 100 µM. For the same compound, the TGI (ACHN renal) was > 100 µM, the TGI (BT-549 breast) was > 100 µM and the TGI (CAKI-1 renal) was > 100 µM. For the same compound, the TGI (CCRF-CEM leukemia) was > 100 µM, the TGI (COLO 205 colon) was > 100 µM and the TGI (DU-145 prostate) was > 100 µM. The TGI (EKVX NSCLC) was > 100 µM, the TGI (HCT-116 colon) was > 100 µM and the TGI (HCT-15 colon) was > 100 µM. For the same compound, the TGI (HL-60(TB) leukemia) was > 100 µM, the TGI (HOP-62 NSCLC) was > 100 µM and the TGI (HOP-92 NSCLC) was > 100 µM. The TGI (HS 578T breast) was > 100 µM, the TGI (HT29 colon) was 32 µM and the TGI (IGROV1 ovarian) was > 100 µM. For the same compound, the TGI (K-562 leukemia) was > 100 µM, the TGI (KM12 colon) was > 100 µM and the TGI (LOX IMVI melanoma) was > 100 µM. For the same compound, the TGI (M14 melanoma) was 31.1 µM, the TGI (MALME-3M melanoma) was > 100 µM and the TGI (MCF7 breast) was > 100 µM. The TGI (MDA-MB-231 breast) was > 100 µM, the TGI (MDA-MB-435) was > 100 µM and the TGI (MDA-N) was > 100 µM. For the same compound, the TGI (MOLT-4 leukemia) was > 100 µM, the TGI (NCI-H226 lung) was 72.8 µM and the TGI (NCI-H23 lung) was > 100 µM. For the same compound, the TGI (NCI-H460 lung) was > 100 µM, the TGI (NCI-H522 lung) was 65.3 µM and the TGI (NCI/ADR-RES ovarian) was > 100 µM. The TGI (OVCAR-3 ovarian) was > 100 µM, the TGI (OVCAR-4 ovarian) was > 100 µM and the TGI (OVCAR-5 ovarian) was > 100 µM. For the same compound, the TGI (OVCAR-8 ovarian) was > 100 µM, the TGI (PC-3 prostate) was > 100 µM and the TGI (RPMI-8226 leukemia) was > 100 µM. The TGI (RXF 393 renal) was 73.2 µM, the TGI (SF-268 CNS) was > 100 µM and the TGI (SF-295 CNS) was > 100 µM. The TGI (SF-539 CNS) was > 100 µM, the TGI (SK-MEL-2 melanoma) was > 100 µM and the TGI (SK-MEL-28 melanoma) was > 100 µM. The TGI (SK-MEL-5 melanoma) was 46.2 µM, the TGI (SK-OV-3 ovarian) was > 100 µM and the TGI (SN12C renal) was > 100 µM. The TGI (SNB-19 CNS) was > 100 µM, the TGI (SNB-75 CNS) was > 100 µM and the TGI (SR leukemia) was > 100 µM. The TGI (SW-620 colon) was > 100 µM, the TGI (T-47D breast) was > 100 µM and the TGI (TK-10 renal) was > 100 µM. The TGI (U251 CNS) was > 100 µM, the TGI (UACC-257 melanoma) was 86.7 µM and the TGI (UACC-62 melanoma) was > 100 µM. For the same compound, the TGI (UO-31 renal) was > 100 µM.
